This is an account of results in patent US20080161247A1, “Synergistic composition for modulating activity of substrate analogs for NAD+, NADP+, NADH or NADPH dependent enzymes and process thereof” (priority 2006, published 2008).

Like-named read-outs stand apart in the source and are kept apart here.

One assay addresses T1, PfENR (Plasmodium falciparum, UniProt Q9BH77).
T1 construct: The overexpression of PfENR was carried out [22]; made in house
The assay is classed as binding. The conditions noted are these: read-out: Kd of EGCG in the presence of triclosan, saturation kinetics; 10 μM triclosan. How it is done: Binding studies of [^3H] […] Briefly, for gel filtration chromatography, 2 ml Sephadex G-25 column was packed and equilibrated with the reaction buffer. For each run 50 μl of the reaction mixture was loaded and 20 fractions of 100 μl were collected at 0.25 ml/min flow rate. All the fractions were spotted on Whatman 3 filter paper and dried before taking the counts. In the filter binding assay method, the reaction mixtures were directly applied on the activated Polyvinylidene difluoride (PVDF) membrane fixed in a filtration assembly. The filters were washed with 200 μl of reaction buffer and dried. Dried filters were transferred to vials containing 5 ml scintillation fluid and the radioactivity measured using a Hewlett Packard liquid scintillation counter.
To check the binding of [^3H] […] The concentration of [^3H]
[^3H] […] (FIG. 4d) Double reciprocal plot of the same data is shown in the inset.
The binding constants for the above experiments were determined from saturation plots and by Scatchard plot or double reciprocal plot using equation 2a and 2b described under evaluation section.

For assay [1], the target named is T2, Plasmodium falciparum enoyl-Acyl carrier protein (ACP) reductase (PfENR) (Plasmodium falciparum, UniProt Q9BH77).
T2 sequence (Q9BH77 22-432): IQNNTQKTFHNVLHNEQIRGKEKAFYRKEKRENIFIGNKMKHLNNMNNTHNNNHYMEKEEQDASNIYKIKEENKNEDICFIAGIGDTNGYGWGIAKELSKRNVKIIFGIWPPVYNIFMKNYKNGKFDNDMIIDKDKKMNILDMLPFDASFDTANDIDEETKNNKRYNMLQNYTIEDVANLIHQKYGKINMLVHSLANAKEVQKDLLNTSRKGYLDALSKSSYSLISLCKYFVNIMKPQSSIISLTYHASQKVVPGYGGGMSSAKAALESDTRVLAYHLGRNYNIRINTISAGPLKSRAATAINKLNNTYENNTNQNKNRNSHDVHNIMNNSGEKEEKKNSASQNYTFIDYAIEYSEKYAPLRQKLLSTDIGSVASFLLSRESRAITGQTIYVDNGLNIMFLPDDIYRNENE
To be noted: for Ki: Dixon plot.

Take (−) epigallocatechin gallate [EGCG]: the Kd at PfENR was found to be 89 ± 2.3 nM. The IC50 in assay [1] (read-out: IC50 [μM] with PfENR, 30 nM PfENR, 200 μM crotonoyl-CoA, 100 μM NADH) stood at 0.25 ± 0.0062 µM; in assay [1] (read-out: IC50 values with PfENR, Table 6), 0.25 ± 0.062 µM; in assay [1] (read-out: IC50 with PfENR, FIG. 1A), 0.25 ± 0.0062 µM. In addition, the Ki in assay [1] (read-out: Ki against crotonoyl-CoA (absence of triclosan)) was 79 ± 2.67 nM; in assay [1] (read-out: Ki in presence of TCL, Ki of the catechin at 50 nM and 100 nM triclosan), 8 ± 0.56 nM; in assay [1] (read-out: Ki w.r.t. NADH, competitive, NADH 50, 100, 200 μM, crotonoyl-CoA 200 μM), 186 ± 7.98 nM.
